Data as given in patent publication US20090099157A1, “TETRAHYDRO-PYRAZOLO-PYRIDINE THIOETHER MODULATORS OF CATHEPSIN S” (priority 2007, published 2009).

Protein sequences, listed by entry. Tags and fused reporters are not part of them. Residues count along the entry.
UniProt P25774, 115-331: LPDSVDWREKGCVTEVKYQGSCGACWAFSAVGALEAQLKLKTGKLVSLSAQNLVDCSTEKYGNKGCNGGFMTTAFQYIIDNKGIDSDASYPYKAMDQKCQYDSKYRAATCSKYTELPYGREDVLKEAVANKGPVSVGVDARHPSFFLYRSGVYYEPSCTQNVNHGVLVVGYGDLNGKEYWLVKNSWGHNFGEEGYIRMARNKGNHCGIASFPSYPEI

Target: Recombinant human cathepsin S (CatS) (Homo sapiens, UniProt P25774)
Experiment: biochemical

| IC50 | Structure (SMILES) |
| --- | --- |
| 1030 nM | C[C@H](O)C(=O)N1CCc2c(c(-c3ccc(C(F)(F)F)c(SCCN4CCOCC4)c3)nn2CC(O)CN2CCCCC2)C1 (stereo partly drawn) [Example 334, (2S)-1-[1-(2-Hydroxy-3-piperidin-1-ylpropyl)-3-{3-[(2-morpholin-4-ylethyl)sulfanyl]-4-(trifluoromethyl)phenyl}-1,4,6,7-tetrahydro-5H-pyrazolo[4,3-c]pyridin-5-yl]-1-oxopropan-2-ol] |
| 40 nM | CS(=O)(=O)N1CCc2c(c(-c3ccc(C(F)(F)F)c(SCCN4CCCCC4)c3)nn2CC(O)CN2CCC(N3CCCC3=O)CC2)C1 (stereo not shown) [Example 157, 1-(1-{2-Hydroxy-3-[5-(methylsulfonyl)-3-{3-[(2-piperidin-1-ylethyl)sulfanyl]-4-(trifluoromethyl)phenyl}-4,5,6,7-tetrahydro-1H-pyrazolo[4,3-c]pyridin-1-yl]propyl}piperidin-4-yl)pyrrolidin-2-one] |
| 290 nM | CS(=O)(=O)N1CCc2c(c(-c3ccc(C(F)(F)F)c(SCCN4CCC(CO)CC4)c3)nn2CCCN2CCC(N3CCCC3=O)CC2)C1 [Example 21, 1-{1-[3-(3-{3-[2-(4-Hydroxymethyl-piperidin-1-yl)-ethylsulfanyl]-4-trifluoromethyl-phenyl}-5-methanesulfonyl-4,5,6,7-tetrahydro-pyrazolo[4,3-c]pyridin-1-yl)-propyl]-piperidin-4-yl}-pyrrolidin-2-one] |
| 640 nM | CCOC(=O)CSc1cc(-c2nn(CC(O)CN3CCC(N4CCCC4=O)CC3)c3c2CN(S(C)(=O)=O)CC3)ccc1C(F)(F)F (stereo not shown) [Example 63, [5-(1-{2-Hydroxy-3-[4-(2-oxo-pyrrolidin-1-yl)-piperidin-1-yl]-propyl}-5-methanesulfonyl-4,5,6,7-tetrahydro-1H-pyrazolo[4,3-c]pyridin-3-yl)-2-trifluoromethyl-phenylsulfanyl]-acetic acid ethyl ester] |
| 230 nM | O=S(=O)(C1CC1)N1CCc2c(c(-c3ccc(C(F)(F)F)c(SCCN4CCC(F)CC4)c3)nn2C[C@@H](O)CN2CCCCC2)C1 [Example 547, (2S)-1-{5-(Cyclopropylsulfonyl)-3-[3-{[2-(4-fluoropiperidin-1-yl)ethyl]sulfanyl}-4-(trifluoromethyl)phenyl]-4,5,6,7-tetrahydro-1H-pyrazolo[4,3-c]pyridin-1-yl}-3-piperidin-1-ylpropan-2-ol] |
| 190 nM | CS(=O)(=O)N1CCc2c(c(-c3ccc(C(F)(F)F)c(SCCN4CCC(F)CC4)c3)nn2C[C@@H](O)CN2CC=CCC2)C1 [Example 204, (2S)-1-(3,6-Dihydropyridin-1(2H)-yl)-3-{3-[3-{[2-(4-fluoropiperidin-1-yl)ethyl]sulfanyl}-4-(trifluoromethyl)phenyl]-5-(methylsulfonyl)-4,5,6,7-tetrahydro-1H-pyrazolo[4,3-c]pyridin-1-yl}propan-2-ol] |
| 360 nM | CN(C(=O)CSc1cc(-c2nn(CCCN3CCC(N4CCCC4=O)CC3)c3c2CN(S(C)(=O)=O)CC3)ccc1C(F)(F)F)C1CCCCC1 [Example 101, N-Cyclohexyl-2-[5-(5-methanesulfonyl-1-{3-[4-(2-oxo-pyrrolidin-1-yl)-piperidin-1-yl]-propyl}-4,5,6,7-tetrahydro-1H-pyrazolo[4,3-c]pyridin-3-yl)-2-trifluoromethylphenylsulfanyl]-N-methyl-acetamide] |
| 240 nM | CCS(=O)(=O)N1CCc2c(c(-c3ccc(C(F)(F)F)c(SCCN4CCC(F)CC4)c3)nn2CC(O)CN2CCCCC2)C1 (stereo not shown) [Example 190, 1-{5-(Ethylsulfonyl)-3-[3-{[2-(4-fluoropiperidin-1-yl)ethyl]sulfanyl}-4-(trifluoromethyl)phenyl]-4,5,6,7-tetrahydro-1H-pyrazolo[4,3-c]pyridin-1-yl}-3-piperidin-1-ylpropan-2-ol] |
| 1140 nM | CS(=O)(=O)N1CCc2c(c(-c3ccc(C(F)(F)F)c(SCCN4CCOCC4)c3)nn2CC(O)CN2CCC(O)C2)C1 (stereo not shown) [Example 356, 1-{2-Hydroxy-3-[5-(methylsulfonyl)-3-{3-[(2-morpholin-4-ylethyl)sulfanyl]-4-(trifluoromethyl)phenyl}-4,5,6,7-tetrahydro-1H-pyrazolo[4,3-c]pyridin-1-yl]propyl}pyrrolidin-3-ol] |
| 290 nM | CS(=O)(=O)NC1CCN(CC(O)Cn2nc(-c3ccc(C(F)(F)F)c(SCCN4CCC(O)CC4)c3)c3c2CCN(S(C)(=O)=O)C3)CC1 (stereo not shown) [Example 781, N-[1-(2-Hydroxy-3-{3-[3-{[2-(4-hydroxypiperidin-1-yl)ethyl]sulfanyl}-4-(trifluoromethyl)phenyl]-5-(methylsulfonyl)-4,5,6,7-tetrahydro-1H-pyrazolo[4,3-c]pyridin-1-yl}propyl)piperidin-4-yl]methanesulfonamide] |
| 1420 nM | CS(=O)(=O)N1CCc2c(c(-c3ccc(C(F)(F)F)c(SCCN4CCOC[C@@H]4CO)c3)nn2CCCN2CCCCC2)C1 [Example 148, {(3S)-4-[2-({5-[5-(Methylsulfonyl)-1-(3-piperidin-1-ylpropyl)-4,5,6,7-tetrahydro-1H-pyrazolo[4,3-c]pyridin-3-yl]-2-(trifluoromethyl)phenyl}sulfanyl)ethyl]morpholin-3-yl}methanol] |
| 290 nM | CC1(O)CCN(C[C@H](O)Cn2nc(-c3ccc(C(F)(F)F)c(SCCN4CCCC(F)(F)C4)c3)c3c2CCN(S(C)(=O)=O)C3)CC1 [Example 631, 1-[(2S)-3-{3-[3-{[2-(3,3-Difluoropiperidin-1-yl)ethyl]sulfanyl}-4-(trifluoromethyl)phenyl]-5-(methylsulfonyl)-4,5,6,7-tetrahydro-1H-pyrazolo[4,3-c]pyridin-1-yl}-2-hydroxypropyl]-4-methylpiperidin-4-ol] |
| 45 nM | O=C(CSc1cc(-c2nn(CC(O)CN3CCC(C(=O)N4CCCC4)CC3)c3c2CN(C(=O)CO)CC3)ccc1C(F)(F)F)N1CCOCC1 (stereo not shown) [Example 721, 1-[5-(Hydroxyacetyl)-3-{3-[(2-morpholin-4-yl-2-oxoethyl)sulfanyl]-4-(trifluoromethyl)phenyl}-4,5,6,7-tetrahydro-1H-pyrazolo[4,3-c]pyridin-1-yl]-3-[4-(pyrrolidin-1-ylcarbonyl)piperidin-1-yl]propan-2-ol] |
| 570 nM | C[C@H]1COCCN1CCSc1cc(-c2nn(C[C@@H](O)CN3CCCCC3)c3c2CN(S(C)(=O)=O)CC3)ccc1C(F)(F)F [Example 392, (2S)-1-{3-[3-({2-[(3S)-3-Methylmorpholin-4-yl]ethyl}sulfanyl)-4-(trifluoromethyl)phenyl]-5-(methylsulfonyl)-4,5,6,7-tetrahydro-1H-pyrazolo[4,3-c]pyridin-1-yl}-3-piperidin-1-ylpropan-2-ol] |
| 310 nM | O=C(CSc1cc(-c2nn(CC(O)CN3CCN(c4ccccc4O)CC3)c3c2CNCC3)ccc1C(F)(F)F)N1CCCC1 (stereo not shown) [Example 380, 2-{4-[2-Hydroxy-3-(3-{3-[(2-oxo-2-pyrrolidin-1-ylethyl)sulfanyl]-4-(trifluoromethyl)phenyl}-4,5,6,7-tetrahydro-1H-pyrazolo[4,3-c]pyridin-1-yl)propyl]piperazin-1-yl}phenol] |
| 830 nM | CC1C(=O)NCCN1CCSc1cc(-c2nn(CCCN3CCCCC3)c3c2CN(S(C)(=O)=O)CC3)ccc1C(F)(F)F (stereo not shown) [Example 374, 3-Methyl-4-[2-({5-[5-(methylsulfonyl)-1-(3-piperidin-1-ylpropyl)-4,5,6,7-tetrahydro-1H-pyrazolo[4,3-c]pyridin-3-yl]-2-(trifluoromethyl)phenyl}sulfanyl)ethyl]piperazin-2-one] |
| 25 nM | CCOc1ccccc1N1CCN(CC(O)Cn2nc(-c3ccc(C(F)(F)F)c(SCCN4CCCCC4)c3)c3c2CCN(S(C)(=O)=O)C3)CC1 (stereo not shown) [Example 830, 1-{4-[2-(Ethyloxy)phenyl]piperazin-1-yl}-3-[5-(methylsulfonyl)-3-{3-[(2-piperidin-1-ylethyl)sulfanyl]-4-(trifluoromethyl)phenyl}-4,5,6,7-tetrahydro-1H-pyrazolo[4,3-c]pyridin-1-yl]propan-2-ol] |
| 270 nM | CS(=O)(=O)N1CCc2c(c(-c3ccc(C(F)(F)F)c(SCCN4CCC(F)CC4)c3)nn2CC(O)CN2CCC(C(=O)O)CC2)C1 (stereo not shown) [Example 610, 1-(3-{3-[3-{[2-(4-Fluoropiperidin-1-yl)ethyl]sulfanyl}-4-(trifluoromethyl)phenyl]-5-(methylsulfonyl)-4,5,6,7-tetrahydro-1H-pyrazolo[4,3-c]pyridin-1-yl}-2-hydroxypropyl)piperidine-4-carboxylic acid] |
| 1150 nM | CN1CCN(CC(O)Cn2nc(-c3ccc(C(F)(F)F)c(SCCN4CCCCC4)c3)c3c2CCN(S(C)(=O)=O)C3)CC1 (stereo not shown) [Example 163, 1-(4-Methylpiperazin-1-yl)-3-[5-(methylsulfonyl)-3-{3-[(2-piperidin-1-ylethyl)sulfanyl]-4-(trifluoromethyl)phenyl}-4,5,6,7-tetrahydro-1H-pyrazolo[4,3-c]pyridin-1-yl]propan-2-ol] |
| 930 nM | CC(C)N(C(=O)N1CCc2c(c(-c3ccc(C(F)(F)F)c(SCCN4CCC(F)CC4)c3)nn2C[C@@H](O)CN2CCCCC2)C1)C(C)C [Example 635, 3-[3-{[2-(4-Fluoropiperidin-1-yl)ethyl]sulfanyl}-4-(trifluoromethyl)phenyl]-1-[(2S)-2-hydroxy-3-piperidin-1-ylpropyl]-N,N-bis(1-methylethyl)-1,4,6,7-tetrahydro-5H-pyrazolo[4,3-c]pyridine-5-carboxamide] |
| 120 nM | O[C@@H](CN1CCC(c2cccc(Cl)c2)CC1)Cn1nc(-c2ccc(C(F)(F)F)c(SCCN3CCC(F)CC3)c2)c2c1CCNC2 [Example 579, (2S)-1-[4-(3-Chlorophenyl)piperidin-1-yl]-3-{3-[3-{[2-(4-fluoropiperidin-1-yl)ethyl]sulfanyl}-4-(trifluoromethyl)phenyl]-4,5,6,7-tetrahydro-1H-pyrazolo[4,3-c]pyridin-1-yl}propan-2-ol] |
| 210 nM | COc1ccc(C2CCN(CC(O)Cn3nc(-c4ccc(C(F)(F)F)c(SCCN5CCCCC5)c4)c4c3CCNC4)CC2)cc1 (stereo not shown) [Example 446, 1-{4-[4-(Methyloxy)phenyl]piperidin-1-yl}-3-(3-{3-[(2-piperidin-1-ylethyl)sulfanyl]-4-(trifluoromethyl)phenyl}-4,5,6,7-tetrahydro-1H-pyrazolo[4,3-c]pyridin-1-yl)propan-2-ol] |
